Ab-95 light chain CDR variants: yeast mating affinities

Target: peptide PDVDLGDISGINAS, taken from heptad repeat 2 (HR2) of SARS-CoV-2 spike.

Parent: Ab-95, a human scFv built as VH, the linker GGGGSGGGGSGGGGS, VL. Only the CDRs of the light chain vary.
VH: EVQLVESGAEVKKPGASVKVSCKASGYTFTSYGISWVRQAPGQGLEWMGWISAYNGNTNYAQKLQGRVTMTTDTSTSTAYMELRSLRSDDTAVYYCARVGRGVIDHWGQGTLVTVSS
VL: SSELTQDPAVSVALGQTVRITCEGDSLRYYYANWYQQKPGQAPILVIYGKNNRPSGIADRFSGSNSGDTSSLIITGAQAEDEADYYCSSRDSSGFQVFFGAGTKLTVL

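Phage display of a naive human antibody library on the peptide gave the parent. Library AAYL52 holds single substitutions and randomly drawn double and triple substitutions in the CDRs. In AlphaSeq, yeast of one mating type display the scFv and yeast of the other type display the target. Mating (16 h, 30 °C) was followed by selection of diploids and sequencing of their barcodes. A regression on co-assayed BCL2-family reference pairs converts the normalised counts of each replicate to an apparent Kd. The assay was run in three technical replicates.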

Positions count from residue 1 of the parent VL; N33G puts G in place of N. All variants listed here change K50 of the VL, counted from its first residue. Numbers give log10(Kd / nM), so 0 is 1 nM and 3 is 1 µM. Smaller is tighter. The mean shown is taken over the replicates in which the pair was detected. An entry "nd" has no value in the source: the pair was not observed among the diploids in any replicate. This suggests poor binding but is not conclusive. For reference, the parent read 2.31 as the reference entry and 2.25 as a member of this library. Background: pairings of library AAYL52 with three empty control strains gave a value in 28% of cases (median 3.91, 5th percentile 2.90). Values in that range, when seen in few replicates, are hard to tell from nonspecific mating.

For N33G/K50P/S55W, the assay gave 4.41 (3 of 3 replicates). For D25Q/N33P/K50A, the assay gave 5.23 (1 of 3 replicates). For Y29I/K50M/S88A, the assay gave 2.66 (3 of 3 replicates). For K50C/P54H/F98I, the assay gave 4.16 (1 of 3 replicates). The variant N33Q/K50R/V97L gave 4.18 (2 of 3 replicates). The variant S26R/A32N/K50S showed 1.62 (3 of 3 replicates). With N33G/K50H/P54Y the result was 4.82 (1 of 3 replicates). With D25F/K50S/D91K the result was 2.91 (1 of 3 replicates).

With R28T/N33V/K50W the result was 4.21 (1 of 3 replicates). The variant R28A/A32R/K50S showed 3.94 (3 of 3 replicates). For D25A/Y29R/K50R, the assay gave 2.83 (3 of 3 replicates). The variant D25A/R28P/K50H showed 2.10 (3 of 3 replicates). The variant L27R/K50H showed 3.41 (3 of 3 replicates). For R28H/K50E/R53Q, the assay gave 3.43 (3 of 3 replicates). The variant K50F/G94M/F95T gave 3.52 (1 of 3 replicates). For K50C, the assay gave 2.69 (3 of 3 replicates).

The variant K50S/D91N/G94F showed 2.54 (3 of 3 replicates). With Y31I/K50E/Q96F the result was 2.84 (3 of 3 replicates). The variant K50D/P54E gave 2.00 (3 of 3 replicates). For S26L/G49W/K50H, the assay gave nd (0 of 3 replicates). With D25N/K50F/N52S the result was 3.46 (1 of 3 replicates). The variant Y29N/Y30L/K50Y gave 2.26 (3 of 3 replicates). For K50D/P54R/D91G, the assay gave 2.62 (3 of 3 replicates). The variant K50N/S55Q/R90P showed nd (0 of 3 replicates).

For S26I/K50I, the assay gave 3.42 (3 of 3 replicates). With K50F/D91A the result was 3.29 (2 of 3 replicates). With K50F/N52W/S55Q the result was 4.39 (2 of 3 replicates). For K50H/P54N/S92P, the assay gave 3.11 (3 of 3 replicates). The variant K50W/P54Y/R90L showed 3.45 (1 of 3 replicates). For K50C/S92W/Q96L, the assay gave 3.50 (3 of 3 replicates). With G24N/K50L/N52S the result was 4.08 (3 of 3 replicates). For K50Y/S89P/F98V, the assay gave 3.77 (1 of 3 replicates).

With K50H/S88D/F95H the result was nd (0 of 3 replicates). For S26V/K50Q/R53S, the assay gave 3.47 (3 of 3 replicates). With L27R/K50Q/F98K the result was 3.19 (1 of 3 replicates). For K50A, the assay gave 2.09 (3 of 3 replicates). The variant Y31Q/K50T/S55E showed 0.65 (3 of 3 replicates). The variant K50Q/P54N/D91K showed 3.27 (1 of 3 replicates). The variant G24Q/K50L/Q96M showed 3.97 (3 of 3 replicates). With K50L/N51D/P54D the result was 4.44 (1 of 3 replicates).

For Y31G/K50C/S93R, the assay gave 2.26 (3 of 3 replicates).

Picked from the list: the 5 lowest averages where every replicate gave a value.

| changes | mean log10 Kd (nM) | seen in |
|---|---|---|
| Y31Q/K50T/S55E | 0.65 | 3 of 3 |
| S26R/A32N/K50S | 1.62 | 3 of 3 |
| K50D/P54E | 2.00 | 3 of 3 |
| K50A | 2.09 | 3 of 3 |
| D25A/R28P/K50H | 2.10 | 3 of 3 |

Values reported by Engelhart et al. 2022, doi:10.1038/s41597-022-01779-4 (FLAb copy).